Experimental data: PubChem BioAssay (NCI)
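Exposure lasted 48 hours, with cells grown in 96-well plates and compounds tested at five concentrations. GI50 is the concentration that inhibits growth by half. TGI: total growth inhibition.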

How the values were obtained:
Assay in all cases: NCI-60 cell line screen, 48 h
UO-31 renal = system: UO-31 renal
DU-145 prostate = system: DU-145 prostate
OVCAR-4 ovarian = system: OVCAR-4 ovarian
RXF 393 renal = system: RXF 393 renal
OVCAR-5 ovarian = system: OVCAR-5 ovarian
OVCAR-3 ovarian = system: OVCAR-3 ovarian
SK-OV-3 ovarian = system: SK-OV-3 ovarian
UACC-62 melanoma = system: UACC-62 melanoma
SK-MEL-28 melanoma = system: SK-MEL-28 melanoma
M14 melanoma = system: M14 melanoma
TK-10 renal = system: TK-10 renal
SNB-19 CNS = system: SNB-19 CNS
U251 CNS = system: U251 CNS
SW-620 colon = system: SW-620 colon
NCI-H522 lung = system: NCI-H522 lung
SR leukemia = system: SR leukemia
SF-539 CNS = system: SF-539 CNS
CAKI-1 renal = system: CAKI-1 renal
PC-3 prostate = system: PC-3 prostate
MOLT-4 leukemia = system: MOLT-4 leukemia
HS 578T breast = system: HS 578T breast
A549 NSCLC = system: A549 NSCLC
IGROV1 ovarian = system: IGROV1 ovarian
HOP-62 NSCLC = system: HOP-62 NSCLC
MCF7 breast = system: MCF7 breast
NCI-H460 lung = system: NCI-H460 lung
HCT-15 colon = system: HCT-15 colon
MDA-MB-231 breast = system: MDA-MB-231 breast
NCI-H322M lung = system: NCI-H322M lung
A498 renal = system: A498 renal
SN12C renal = system: SN12C renal
RPMI-8226 leukemia = system: RPMI-8226 leukemia
UACC-257 melanoma = system: UACC-257 melanoma
MDA-MB-435 = system: MDA-MB-435
NCI/ADR-RES ovarian = system: NCI/ADR-RES ovarian
NCI-H23 lung = system: NCI-H23 lung
HL-60(TB) leukemia = system: HL-60(TB) leukemia
OVCAR-8 ovarian = system: OVCAR-8 ovarian
ACHN renal = system: ACHN renal
SNB-75 CNS = system: SNB-75 CNS
NCI-H226 lung = system: NCI-H226 lung
COLO 205 colon = system: COLO 205 colon
KM12 colon = system: KM12 colon
SK-MEL-5 melanoma = system: SK-MEL-5 melanoma
HOP-92 NSCLC = system: HOP-92 NSCLC
T-47D breast = system: T-47D breast
HT29 colon = system: HT29 colon
MALME-3M melanoma = system: MALME-3M melanoma
SF-295 CNS = system: SF-295 CNS
SK-MEL-2 melanoma = system: SK-MEL-2 melanoma
HCT-116 colon = system: HCT-116 colon
SF-268 CNS = system: SF-268 CNS
786-0 renal = system: 786-0 renal
K-562 leukemia = system: K-562 leukemia
LOX IMVI melanoma = system: LOX IMVI melanoma
CCRF-CEM leukemia = system: CCRF-CEM leukemia
BT-549 breast = system: BT-549 breast
EKVX NSCLC = system: EKVX NSCLC
HCC-2998 colon = system: HCC-2998 colon

## O=[N+]([O-])C1(Br)CCC(Br)([N+](=O)[O-])CC1 (centres undefined)
UO-31 renal
  GI50: 12 µM
  TGI: 25.4 µM
DU-145 prostate
  GI50: 17.6 µM
  TGI: 32.1 µM
OVCAR-4 ovarian
  GI50: 9.82 µM
  TGI: 22.5 µM
RXF 393 renal
  GI50: 6.34 µM
  TGI: 71.9 µM
OVCAR-5 ovarian
  GI50: 9.17 µM
  TGI: 21.4 µM
OVCAR-3 ovarian
  GI50: 15.3 µM
  TGI: 31.6 µM
SK-OV-3 ovarian
  GI50: 27.1 µM
  TGI: 82 µM
UACC-62 melanoma
  GI50: 15.5 µM
  TGI: 28.9 µM
SK-MEL-28 melanoma
  GI50: 15.4 µM
  TGI: 30.7 µM
M14 melanoma
  GI50: 14.1 µM
  TGI: 30.7 µM
TK-10 renal
  GI50: 11.5 µM
  TGI: 24.4 µM
SNB-19 CNS
  GI50: 18.9 µM
  TGI: 34.5 µM
U251 CNS
  GI50: 16.3 µM
  TGI: 30.1 µM
SW-620 colon
  GI50: 3540 nM
  TGI: 23.7 µM
NCI-H522 lung
  GI50: 5420 nM
  TGI: 22.8 µM
SR leukemia
  GI50: 1740 nM
  TGI: 3580 nM
SF-539 CNS
  GI50: 6.78 µM
  TGI: 19.8 µM
CAKI-1 renal
  GI50: 2420 nM
  TGI: 8.13 µM
PC-3 prostate
  GI50: 16.8 µM
  TGI: 30.9 µM
MOLT-4 leukemia
  GI50: 2070 nM
  TGI: 4.62 µM
HS 578T breast
  GI50: 24.5 µM
  TGI: 65.3 µM
A549 NSCLC
  GI50: 19 µM
  TGI: 35.7 µM
IGROV1 ovarian
  GI50: 18 µM
  TGI: 33.6 µM
HOP-62 NSCLC
  GI50: 15.9 µM
  TGI: 31.8 µM
MCF7 breast
  GI50: 29.8 µM
  TGI: > 100 µM
NCI-H460 lung
  GI50: 34.2 µM
  TGI: > 100 µM
HCT-15 colon
  GI50: 4900 nM
  TGI: 19.8 µM
MDA-MB-231 breast
  GI50: 13.6 µM
  TGI: 26.6 µM
NCI-H322M lung
  GI50: 15.3 µM
  TGI: 30.3 µM
A498 renal
  GI50: > 100 µM
  TGI: > 100 µM
SN12C renal
  GI50: 12.8 µM
  TGI: 25.4 µM
RPMI-8226 leukemia
  GI50: 907 nM
  TGI: 2430 nM
UACC-257 melanoma
  GI50: 10.8 µM
  TGI: 23.1 µM
MDA-MB-435
  GI50: 15.3 µM
  TGI: 30.8 µM
NCI/ADR-RES ovarian
  GI50: 15.5 µM
  TGI: 30.1 µM
NCI-H23 lung
  GI50: 16.6 µM
  TGI: 32 µM
HL-60(TB) leukemia
  GI50: 5440 nM
  TGI: 25 µM
OVCAR-8 ovarian
  GI50: 16.5 µM
  TGI: 31.6 µM
ACHN renal
  GI50: 10.5 µM
  TGI: 22.4 µM
SNB-75 CNS
  GI50: 18.4 µM
  TGI: 33.7 µM
NCI-H226 lung
  GI50: 11.8 µM
  TGI: 24.9 µM
COLO 205 colon
  GI50: 7.5 µM
  TGI: 41.1 µM
KM12 colon
  GI50: 20.3 µM
  TGI: 36.8 µM
SK-MEL-5 melanoma
  GI50: 14.6 µM
  TGI: 31.4 µM
HOP-92 NSCLC
  GI50: 12 µM
  TGI: 25 µM
T-47D breast
  GI50: 21.7 µM
  TGI: > 100 µM
HT29 colon
  GI50: 11.6 µM
  TGI: 25.6 µM
MALME-3M melanoma
  GI50: 2140 nM
  TGI: 8.38 µM
SF-295 CNS
  GI50: 18.4 µM
  TGI: 36.1 µM
SK-MEL-2 melanoma
  GI50: 22.8 µM
  TGI: 55.7 µM
HCT-116 colon
  GI50: 3480 nM
  TGI: 11.4 µM
SF-268 CNS
  GI50: 24.5 µM
  TGI: 87.8 µM
786-0 renal
  GI50: 3830 nM
  TGI: 14.3 µM
K-562 leukemia
  GI50: 13.2 µM
  TGI: 33 µM

## CC(=O)OCC(CS[As](C)C)OC(C)=O (centres undefined)
UO-31 renal
  GI50: 0.862 µM
  TGI: 52 µM
DU-145 prostate
  GI50: 0.424 µM
  TGI: 22 µM
OVCAR-4 ovarian
  GI50: 0.346 µM
  TGI: 3.48 µM
RXF 393 renal
  GI50: 0.651 µM
  TGI: 5.07 µM
OVCAR-5 ovarian
  GI50: 0.234 µM
  TGI: 0.694 µM
OVCAR-3 ovarian
  GI50: 0.0485 µM
  TGI: 0.233 µM
LOX IMVI melanoma
  GI50: 664 nM
  TGI: 3.65 µM
SK-OV-3 ovarian
  GI50: 0.303 µM
  TGI: 1.65 µM
CCRF-CEM leukemia
  GI50: 131 nM
  TGI: 5.97 µM
UACC-62 melanoma
  GI50: 1.57 µM
  TGI: 14.6 µM
SK-MEL-28 melanoma
  GI50: 1.24 µM
  TGI: 21.5 µM
M14 melanoma
  GI50: 0.0707 µM
  TGI: 1.11 µM
TK-10 renal
  GI50: 0.2 µM
  TGI: 2 µM
SNB-19 CNS
  GI50: 6.16 µM
  TGI: 27.8 µM
U251 CNS
  GI50: 2.32 µM
  TGI: 12.8 µM
SW-620 colon
  GI50: 541 nM
  TGI: > 100 µM
NCI-H522 lung
  GI50: 323 nM
  TGI: 13 µM
SR leukemia
  GI50: 227 nM
  TGI: 1440 nM
SF-539 CNS
  GI50: 0.46 µM
  TGI: 5.28 µM
CAKI-1 renal
  GI50: 17.2 nM
  TGI: 0.0608 µM
PC-3 prostate
  GI50: 0.379 µM
  TGI: 4.41 µM
MOLT-4 leukemia
  GI50: 126 nM
  TGI: 4.09 µM
HS 578T breast
  GI50: 1.26 µM
  TGI: 18.3 µM
A549 NSCLC
  GI50: 1.79 µM
  TGI: 19.9 µM
IGROV1 ovarian
  GI50: 3.01 µM
  TGI: > 100 µM
BT-549 breast
  GI50: 344 nM
  TGI: 3.1 µM
HOP-62 NSCLC
  GI50: 3.52 µM
  TGI: 11.9 µM
MCF7 breast
  GI50: 1.32 µM
  TGI: 11.9 µM
NCI-H460 lung
  GI50: 3.25 µM
  TGI: 27.1 µM
HCT-15 colon
  GI50: 116 nM
  TGI: 7.01 µM
MDA-MB-231 breast
  GI50: 0.513 µM
  TGI: 3.09 µM
NCI-H322M lung
  GI50: 5.33 µM
  TGI: 14.3 µM
A498 renal
  GI50: 5.94 µM
  TGI: 21.4 µM
SN12C renal
  GI50: 0.251 µM
  TGI: 1.16 µM
RPMI-8226 leukemia
  GI50: 160 nM
  TGI: 489 nM
UACC-257 melanoma
  GI50: 0.654 µM
  TGI: 27.5 µM
MDA-MB-435
  GI50: 0.071 µM
  TGI: 0.4 µM
EKVX NSCLC
  GI50: 4.02 µM
  TGI: 12 µM
NCI/ADR-RES ovarian
  GI50: 0.068 µM
  TGI: 0.427 µM
NCI-H23 lung
  GI50: 0.0285 µM
  TGI: 0.115 µM
HL-60(TB) leukemia
  GI50: 115 nM
  TGI: 1.13 µM
OVCAR-8 ovarian
  GI50: 1.9 µM
  TGI: 17.8 µM
ACHN renal
  GI50: 0.226 µM
  TGI: 1.86 µM
SNB-75 CNS
  GI50: 5.53 µM
  TGI: 16.4 µM
NCI-H226 lung
  GI50: 1.6 µM
  TGI: 9.31 µM
COLO 205 colon
  GI50: 0.209 µM
  TGI: 1.53 µM
KM12 colon
  GI50: 1.99 µM
  TGI: 9.21 µM
SK-MEL-5 melanoma
  GI50: 1.59 µM
  TGI: 4.91 µM
HOP-92 NSCLC
  GI50: 0.0798 µM
  TGI: 0.522 µM
T-47D breast
  GI50: 0.56 µM
  TGI: 49.5 µM
HT29 colon
  GI50: 0.981 µM
  TGI: > 100 µM
MALME-3M melanoma
  GI50: 49.6 nM
  TGI: 0.266 µM
SF-295 CNS
  GI50: 1.87 µM
  TGI: 6.71 µM
HCC-2998 colon
  GI50: 129 nM
  TGI: 293 nM
HCT-116 colon
  GI50: 605 nM
  TGI: 1.89 µM
SF-268 CNS
  GI50: 1.29 µM
  TGI: 11.2 µM
786-0 renal
  GI50: 300 nM
  TGI: 1.46 µM
K-562 leukemia
  GI50: 0.644 µM
  TGI: 70.4 µM
